Broadly, the inhibition is the relative decrease from the control value, in per cent.

Sequences of proteins named here, by UniProt entry; tags and fusion partners are left off. Residues count along the entry.
UniProt P00748, 20-372 limits assumed: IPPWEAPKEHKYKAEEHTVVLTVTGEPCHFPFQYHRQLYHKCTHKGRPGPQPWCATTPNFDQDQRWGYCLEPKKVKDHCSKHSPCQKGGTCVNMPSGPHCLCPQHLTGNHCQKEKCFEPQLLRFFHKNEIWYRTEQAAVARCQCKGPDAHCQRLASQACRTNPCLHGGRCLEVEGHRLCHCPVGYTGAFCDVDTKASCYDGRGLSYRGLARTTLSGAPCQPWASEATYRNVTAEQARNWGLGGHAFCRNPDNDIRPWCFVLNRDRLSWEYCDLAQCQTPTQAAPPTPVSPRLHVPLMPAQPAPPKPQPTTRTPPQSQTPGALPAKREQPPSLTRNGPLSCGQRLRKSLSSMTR
UniProt P00748, 373-615 limits assumed: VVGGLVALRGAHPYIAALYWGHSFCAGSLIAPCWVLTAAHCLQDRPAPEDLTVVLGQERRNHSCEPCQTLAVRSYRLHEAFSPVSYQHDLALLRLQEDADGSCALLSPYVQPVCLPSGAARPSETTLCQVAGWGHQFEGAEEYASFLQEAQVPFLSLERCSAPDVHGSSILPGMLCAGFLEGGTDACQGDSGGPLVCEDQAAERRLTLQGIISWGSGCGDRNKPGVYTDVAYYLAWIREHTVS

Only a part is listed here, and it is no random draw. Some salts or complexes appear as unconnected parts, following the source record. Activity calls are given as the source filed them. Cut-off read from the data, not from the text of the source: active = inhibition above about 40%; inactive = the rest.

For the assay, the target named is Coagulation factor XII (Homo sapiens) (UniProt P00748). In words: human FXIIa protease inhibitors, primary screen, biochemical, 1536-well (AID 800).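 Note: 0% = enzyme with no compound and 100% = blank without enzyme.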 The conditions noted are these: purified FXIIa, Boc-QGR-AMC fluorogenic substrate, 2 h; at 5 µM; stronger effect = higher value.
For `CCN(CC)CC(O)COC(=O)C(O)(c1ccccc1)C1CCCCC1` (stereo not drawn), the inhibition was inactive: 5.71%.
For `COc1ccc(OP(C)(=O)Nc2ccc(Br)cc2)cc1` (stereo not drawn), the inhibition is inactive: 7.74%.
Regarding `CP(=O)(Oc1ccccc1)N1CCOC1=O` (stereo not drawn), the inhibition is inactive: 22.1%.
On to `CCc1ccc(OP(C)(=O)Nc2cccnc2)cc1` (stereo not drawn), for which the inhibition was inactive: 0.46%.
For `O=C(OCCCN1CCCC1)C(O)(c1ccccc1)C1CCCCC1` (stereo not drawn), the inhibition was inactive: 3.49%.
Consider `CP(=O)(Nc1ccc(Cl)cc1)Oc1ccc(F)cc1` (stereo not drawn), for which the inhibition was inactive: 17.3%.
With `COc1ccccc1OP(C)(=O)Nc1ccccc1Br` (stereo not drawn), the inhibition is inactive: -5.89%.
For `CC(C)(C)c1ccc(OP(C)(=O)O)cc1`, the inhibition is inactive: 5.37%.
For `CN(C)C(=O)c1c([N+](=O)[O-])cc([N+](=O)[O-])cc1[N+](=O)[O-]`, the inhibition was inactive: 8.72%.
In the case of `CP(=O)(OC12CC3CC(CC(C3)C1)C2)OC12CC3CC(CC(C3)C1)C2`, the inhibition was inactive: 4.66%.
On to `CCOC(=O)c1ccc(NP(C)(=O)Oc2ccc(Cl)cc2)cc1` (stereo not drawn), for which the inhibition was inactive: 11.4%.
As for `Cc1cc(C)cc(OP(C)(=O)Nc2cccc(C(F)(F)F)c2)c1` (stereo not drawn), the inhibition is inactive: 6.83%.
For the compound `COc1ccc(OP(C)(=O)Nc2ccccc2Br)cc1` (stereo not drawn), the inhibition is inactive: 13.7%.
Consider `COc1ccccc1OP(C)(=O)Nc1ccc(C)c(C)c1` (stereo not drawn), for which the inhibition is inactive: 10.7%.
For the compound `Cc1nc2ccc3ccccc3c2o1.O=[N+]([O-])c1cc([N+](=O)[O-])c(O)c([N+](=O)[O-])c1`, the inhibition was inactive: -6.47%.
As for `CP(=O)(Nc1ccc(Cl)cc1Cl)Oc1ccccc1` (stereo not drawn), the figure is inactive: 6.89%; as for `CP(=O)(OCCOc1ccccc1)OCCOc1ccccc1`, inactive: 10.5%; as for `COc1ccccc1OP(C)(=O)Nc1ccc(Br)cc1` (stereo not drawn), inactive: 1.04%.
As for `CN(C)CCOC(=O)C(O)(c1ccccc1)C1CCCC1` (stereo not drawn), the figure is inactive: 0.61%; as for `COc1ccc(OP(C)(=O)Nc2ccccn2)cc1` (stereo not drawn), inactive: 23.4%.
For the compound `Cc1c(NP(C)(=O)Oc2ccc(C(C)C)cc2)c(=O)n(-c2ccccc2)n1C` (stereo not drawn), the inhibition was inactive: -5.21%.
As for `O=[N+]([O-])c1cc([N+](=O)[O-])c(Nc2ccccn2)c([N+](=O)[O-])c1`, the figure is inactive: 5.57%; as for `CCc1ccc(OP(C)(=O)O)cc1`, inactive: 8.69%.
As to `CP(=O)(Nc1ccccn1)Oc1ccccc1` (stereo not drawn), the inhibition is inactive: 20.4%.
Next, `COc1ccccc1OP(C)(=O)Nc1ccc(C)cc1C` (stereo not drawn): inactive: -6.77%; `CC(C)c1ccc(OP(C)(=O)Nc2ccc(SC(F)(F)F)cc2)cc1` (stereo not drawn): inactive: 8.47%.
On to `CP(=O)(Nc1ccccc1F)Oc1ccccc1` (stereo not drawn), for which the inhibition is inactive: -14%.
As for `O=C(OCCN1CCN(CCOCc2ccccc2)CC1)C(O)(c1ccccc1)c1ccccc1`, the inhibition was inactive: 12.8%.
`O=C(OC1CN2CCC1CC2)c1ccc([N+](=O)[O-])cc1` (stereo not drawn): the inhibition was inactive: 6.77%.
Next, `COc1ccc2c(c1O)-c1c(O)c(OC)cc3c1[C@H](C2)[N+](C)(C)CC3.O=[N+]([O-])c1cc([N+](=O)[O-])c([O-])c([N+](=O)[O-])c1[O-]`: inactive: 10.8%; `COc1ccc(OP(C)(=O)Nc2ccc(SC(F)(F)F)cc2)cc1` (stereo not drawn): inactive: 0.52%; `CCOC(=O)c1ccc(NP(C)(=O)Oc2ccc(F)cc2)cc1` (stereo not drawn): inactive: -5.8%.
With `CCN(CC)CCCOC(=O)C(O)(c1ccccc1)C1CCCCC1` (stereo not drawn), the inhibition is inactive: 6.19%.
For `CCCCCOc1ccc(NP(C)(=O)Oc2ccc(Cl)cc2Cl)cc1` (stereo not drawn), the inhibition was inactive: 5.9%.
For the compound `CP(=O)(Nc1ccccc1)Oc1ccc(F)cc1` (stereo not drawn), the inhibition was inactive: 13.8%.
On to `COc1ccc(OP(C)(=O)Nc2cccc(Br)c2)cc1` (stereo not drawn), for which the inhibition is inactive: 14.6%.
In the case of `COc1ccc(NP(C)(=O)Oc2ccccc2OC)cc1` (stereo not drawn), the inhibition is inactive: 6.97%.
For `CN(C)CCOC(=O)C(O)(c1ccccc1)C1CCCCC1` (stereo not drawn), the inhibition is inactive: 14.9%.
As for `Cc1cc(-c2cccc3ccccc23)c(C)cn1.O=[N+]([O-])c1cc([N+](=O)[O-])c(O)c([N+](=O)[O-])c1`, the figure is inactive: 3.96%; as for `O=[N+]([O-])c1cc([N+](=O)[O-])c(NCC2CCS(=O)(=O)C2)c([N+](=O)[O-])c1` (stereo not drawn), inactive: 10.4%; as for `O=[N+]([O-])c1ccc(OP2(=O)COCCO2)cc1` (stereo not drawn), inactive: 7.19%.
Take `CP(=O)(Nc1ccc(SC(F)(F)F)cc1)Oc1ccc(F)cc1` (stereo not drawn): the inhibition was inactive: 7.79%.
Next, `CCOP(C)(=S)SCC(=O)NC(C)(CC)C(=O)O` (stereo not drawn): inactive: -9.03%; `CP(=O)(Nc1ccc2c(c1)OCCO2)Oc1ccccc1` (stereo not drawn): inactive: 15.8%; `Cc1ccccc1NP(C)(=O)Nc1ccccc1C`: inactive: 3.91%.
As for `O=[N+]([O-])c1cc([N+](=O)[O-])c(-n2nnc3ccccc32)c([N+](=O)[O-])c1`, the inhibition is inactive: 11.9%.
Consider `Cc1nc2ccc3ccccc3c2s1.O=[N+]([O-])c1cc([N+](=O)[O-])c(O)c([N+](=O)[O-])c1`, for which the inhibition was inactive: 19.5%.
With `O=[N+]([O-])c1cc([N+](=O)[O-])c(Nc2nnnn2CCO)c([N+](=O)[O-])c1`, the inhibition is inactive: 3.76%.
With `CCOC(=O)C(CC)C1=NC(C)(C)Cc2ccccc21.O=[N+]([O-])c1cc([N+](=O)[O-])c(O)c([N+](=O)[O-])c1` (stereo not drawn), the inhibition was inactive: 5.15%.
On to `CN1CCCCC1COC(=O)C1(O)c2ccccc2CCc2ccccc21` (stereo not drawn), for which the inhibition was inactive: 3.29%.
On to `COc1ccccc1OP(C)(=O)Nc1c(C)cccc1C` (stereo not drawn), for which the inhibition is inactive: -14.2%.
Take `CCCOc1ccc(NP(C)(=O)Oc2ccc(Cl)cc2)cc1` (stereo not drawn): the inhibition is inactive: 1.1%.
For the compound `CP(=O)(Nc1ccc(SC(F)(F)F)cc1)Oc1ccccc1` (stereo not drawn), the inhibition was inactive: -0.02%.
With `O=C(O)c1cccc(Nc2c([N+](=O)[O-])cc([N+](=O)[O-])cc2[N+](=O)[O-])c1`, the inhibition is inactive: 2.94%.
As for `CC1=NCCc2c1[nH]c1ccccc21.O=[N+]([O-])c1cc([N+](=O)[O-])c(O)c([N+](=O)[O-])c1`, the figure is inactive: 2.37%; as for `COc1ccccc1OP(C)(=O)Nc1cccc(Br)c1` (stereo not drawn), inactive: 12.9%; as for `Cc1cc(C)cc(OP(C)(=O)Nc2ccc(C)cc2C)c1` (stereo not drawn), inactive: 10.1%.
Take `CCOC(=O)c1ccc(NP(C)(=O)Oc2cc(C)cc(C)c2)cc1` (stereo not drawn): the inhibition was inactive: 2.65%.
As to `Cc1cc(C)cc(OP(C)(=O)Nc2ccccn2)c1` (stereo not drawn), the inhibition was inactive: 2.21%.
With `CP(=O)(Nc1cccc(Br)c1)Oc1ccccc1` (stereo not drawn), the inhibition was inactive: 10.6%.
`Cc1ccc(C)c(NP(C)(=O)Oc2ccccc2)c1` (stereo not drawn): the inhibition was inactive: 16.9%.
Next, `CCN(CC)CCCOC(=O)C(O)(c1ccccc1)c1ccccc1`: inactive: 9.78%; `CC(C)(C)c1ccc(OP(C)(=O)Nc2ccc(SC(F)(F)F)cc2)cc1` (stereo not drawn): inactive: 16.4%; `Cc1cccc(C)c1OP(C)(N)=O` (stereo not drawn): inactive: 4.03%.
Next, `O=[N+]([O-])c1ccc2c(c1)C=Nc1ccccc1O2`: inactive: 6.46%.
As for `CCOC(=O)c1ccc(NP(C)(=O)Oc2ccccc2)cc1` (stereo not drawn), the inhibition is inactive: 6.12%.
With `COc1ccccc1OP(C)(=O)Nc1ccc(C)cc1` (stereo not drawn), the inhibition was inactive: 22.8%.
In the case of `Cc1ccc(NP(C)(=O)Oc2ccccc2)c(C)c1` (stereo not drawn), the inhibition was inactive: 3.06%.
As for `COc1ccccc1OP(C)(=O)Nc1cc(Cl)ccc1C` (stereo not drawn), the inhibition was inactive: 0.5%.
As for `COc1ccc(OP(C)(=O)Nc2cccc(F)c2)cc1` (stereo not drawn), the inhibition was inactive: 10.9%.
Next, `Cc1cc(C)cc(OP(C)(N)=O)c1` (stereo not drawn): inactive: 12%; `CP(=S)(Nn1cnnc1)Oc1ccccc1` (stereo not drawn): inactive: 14.6%.
As for `COc1ccccc1OP(C)(=O)Nc1ccccc1` (stereo not drawn), the inhibition is inactive: -10.1%.
In the case of `CP(=O)(Nc1ccccc1Br)Oc1ccccc1` (stereo not drawn), the inhibition was inactive: 10.6%.
For `CP(=O)(Nc1ccc(SC(F)(F)F)cc1)Oc1ccc(Cl)cc1` (stereo not drawn), the inhibition was inactive: 11.8%.
In the case of `Cc1cccc(C)c1OP(C)(=O)Nc1ccc(SC(F)(F)F)cc1` (stereo not drawn), the inhibition is inactive: 5.76%.
Consider `CP(=O)(Oc1ccccc1)OC(c1ccccc1)C(F)(F)F` (stereo not drawn), for which the inhibition is inactive: 10.8%.
Take `CP(=O)(NC(=O)Nc1ccccc1)Oc1ccccc1` (stereo not drawn): the inhibition was inactive: 18%.
For the compound `CCc1ccc(OP(C)(=O)N2CCN(c3ccc([N+](=O)[O-])cc3)CC2)cc1` (stereo not drawn), the inhibition is inactive: 4.77%.
With `Cc1cc(C)cc(OP(C)(=O)Nc2ccc(SC(F)(F)F)cc2)c1` (stereo not drawn), the inhibition is inactive: 6.97%.
Take `CCOP(C)(=S)SCC(=O)NC(C)C(=O)O` (stereo not drawn): the inhibition is inactive: 11.7%.
Consider `CCOC(=O)c1ccc(NP(C)(=O)Oc2ccc(OC)cc2)cc1` (stereo not drawn), for which the inhibition is inactive: 3.3%.
`CP(=O)(Nc1ccccn1)Oc1ccc(Cl)cc1` (stereo not drawn): the inhibition is inactive: -16.3%.

For the origin of these results see PubChem BioAssay AID800 (PCMD, 2007).
